From patent US20240158494A1 (Biogen, published 2024)

B1: TfR1 ANTIBODY-A HC-H4 hIgG1 Fab′(1C)/LC-L1 hKappa (Fab, V domains shown)
VH: QSLVESGGGLVQPGGSLRLSCKASGIDFSSSGYMAWVRQAPGKGLEWVGAIYTYSSNTYYASWAKGRFTISKTSSTTVYLQMNSLKTEDTAVYYCARGTYGYTGYTYTMGYFSLWGPGTLVTVSS
VL: DIQMTQSPSTLSASVGDRVTITCQASQNINSYLAWYQQKPGKAPKLLIYRASTLASGVPSRFSGSGSGTEFTLTISSLQPDDFATYYCQSYYYSGSSNYNAFGGGTKVEIKR
B2: TfR1 ANTIBODY-A HC-H0C hIgG1 Fab′(1C)/LC-L1 hKappa (Fab, V domains shown)
VH: EVQLVESGGGLVQPGGSLRLSCAASGIDFSSSGYMCWVRQAPGKGLEWVGCIYTYSSNTYYAASVKGRFTISRDDSKNSLYLQMNSLKTEDTAVYYCARGTYGYTGYTYTMGYFSLWGQGTLVTVSS
VL: B1 VL
B3: TfR1 ANTIBODY-A HC-H4 hIgG1 Fab′(1C)/LC-L2 hKappa (Fab, V domains shown)
VH: B1 VH
VL: B1 VL with D1E, I2L, Q3D
B4: TfR1 ANTIBODY-A HC-H3 hIgG1 Fab′(1C)/LC-L2 hKappa (Fab, V domains shown)
VH: B1 VH with T73D, S75K, T76N, T77S
VL: B1 VL with D1E, I2L, Q3D
B5: TfR1 ANTIBODY-A HC-H0C hIgG1 Fab′(1C)/LC-L2 hKappa (Fab, V domains shown)
VH: B2 VH
VL: B1 VL with D1E, I2L, Q3D
notes: also called ANTIBODY-A H0C/L2
B6: TfR1 ANTIBODY-A HC-H3 hIgG1 Fab′(1C)/LC-L1 hKappa (Fab, V domains shown)
VH: B1 VH with T73D, S75K, T76N, T77S
VL: B1 VL
B7: TfR1 ANTIBODY-A HC-H4 hIgG1 Fab′(1C)/LC-L0 hKappa (Fab, V domains shown)
VH: B1 VH
VL: B1 VL with T53S, A55E
B8: TfR1 ANTIBODY-A HC-H3 hIgG1 Fab′(1C)/LC-L0 hKappa (Fab, V domains shown)
VH: B1 VH with T73D, S75K, T76N, T77S
VL: B1 VL with T53S, A55E
B9: TfR1 ANTIBODY-A HC-H0C hIgG1 Fab′(1C)/LC-L0 hKappa (Fab, V domains shown)
VH: B2 VH
VL: B1 VL with T53S, A55E

biological target: T1, cynomolgus monkey transferrin receptor 1 (TfR1), full length, expressed on cells (cynomolgus monkey, UniProt Q5RDH6 1-760 (Pongo abelii entry)); experiment: FACS on Ba/F3 cells, Fab supernatant
T1 construct: also called cyno TfR1; cyTfR

| Binder | EC50 [nM] |
| --- | --- |
| B1 | > 21 |
| B2 | ~22 |
| B3 | > 64 |
| B4 | > 38 |
| B5 | ~32 |
| B6 | > 26 |
| B7 | > 29 |
| B8 | ~19 |
| B9 | 11.5 |

biological target: T2, human transferrin receptor 1 (TfR1), full length, expressed on cells (human, UniProt P02786 1-760); experiment: FACS on Ba/F3 cells, Fab supernatant
T2 construct: also called human TfR1; huTfR

| Binder | EC50 [nM] |
| --- | --- |
| B2 | 3.2 |
| B9 | 1.9 |

Substitutions are numbered along the chain they refer to. Numbers in names are those of the source.
